{
  "source": "patent US9469674B2",
  "about": "(HAINAN UNIVERSITY, dated 2016)",
  "key": {"[1]": {"tested_on": "hot-plate pain threshold in Kunming mice", "details": "mouse, in vivo"}, "[2]": {"tested_on": "Chronic Constriction Injury model of ischiadic nerve (neuralgia)", "details": "rat, in vivo"}},
  "data": [
    {"compound": "CN1CC[C@]23c4c5ccc(O)c4O[C@H]2[C@@H](O)C=C[C@H]3[C@H]1C5", "note": "[morphine, reference compound]", "values": [
      {"measurement": "pain threshold", "setting": "[1]", "result": 32, "unit": "s"},
      {"measurement": "average analgesic value (Mechanical Threshold, % of basal)", "setting": "[2]", "result": 120, "unit": "%"}
    ]}
  ]
}
